Assay results taken from ChEMBL document CHEMBL4364301 (Eur J Med Chem, 2019).

What was measured:
Assay type in all cases: functional
[1] = system: VCaP; assay: Antiproliferative activity against human VCaP cells assessed as reduction in cell growth incubated for 96 hrs by propidium iodide based 2D monolayer assay
Summary of the method: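 VCaP cells in RPMI 1640 with 10% FCS at 37 °C, 5% CO2, seeded 4,000–20,000 cells/well and left 24 h before dosing. Compounds from DMSO stocks were diluted in half-log steps in medium, 10 concentrations 0.0032–100 μM, triplicate wells, max 0.3% DMSO. After 96 h, cells were washed, stained with 7 μg/ml propidium iodide plus 0.1% Triton X-100 for 1–2 h at room temperature, and fluorescence read at ex 530/em 620 nm.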

[2] = system: CWR22R; assay: Antiproliferative activity against human 22Rv1 cells assessed as reduction in cell growth incubated for 96 hrs by propidium iodide based 2D monolayer assay
Summary of the method: (§1)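 After 24 h recovery, compound in medium or medium alone (control wells) was added at 10 half-log concentrations from 0.0032 to 100 µM, in triplicate, with at most 0.3% DMSO. After 96 h, wells were PBS-washed, stained with 7 µg/ml PI and 0.1% Triton X-100, and fluorescence read at 530/620 nm. IC50 came from a 4-parameter fit, geometric mean.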

[3] = system: DU-145; assay: Antiproliferative activity against human DU145 cells assessed as reduction in cell growth incubated for 96 hrs by propidium iodide based 2D monolayer assay; summary of the method: as §1
[4] = system: LNCaP; assay: Antiproliferative activity against human LNCAP cells assessed as reduction in cell growth incubated for 96 hrs by propidium iodide based 2D monolayer assay; summary of the method: as §1

Measured: Activity

CC(O)(COc1ccc(C#N)cc1)C(=O)Nc1cccc(S(F)(F)(F)(F)F)c1 (racemic)
active: [1] Dose-dependent effect | [2] Dose-dependent effect | [3] Dose-dependent effect | [4] Dose-dependent effect

CC(O)(COc1cccc(OC(F)(F)F)c1)C(=O)Nc1ccc(S(F)(F)(F)(F)F)cc1 (racemic)
active: [1] Dose-dependent effect | [2] Dose-dependent effect | [3] Dose-dependent effect | [4] Dose-dependent effect

CC(O)(COc1cccc(OC(F)(F)F)c1)C(=O)Nc1cccc(S(F)(F)(F)(F)F)c1 (racemic)
active: [1] Dose-dependent effect | [2] Dose-dependent effect | [3] Dose-dependent effect | [4] Dose-dependent effect

CC(O)(CS(=O)(=O)c1ccc(S(F)(F)(F)(F)F)cc1)C(=O)Nc1ccc(C#N)cc1C(F)(F)F (racemic)
active: [1] Dose-dependent effect | [2] Dose-dependent effect | [3] Dose-dependent effect | [4] Dose-dependent effect

CC(O)(CS(=O)(=O)c1ccc(S(F)(F)(F)(F)F)cc1)C(=O)Nc1ccc([N+](=O)[O-])cc1C(F)(F)F (racemic)
active: [1] Dose-dependent effect | [2] Dose-dependent effect | [3] Dose-dependent effect | [4] Dose-dependent effect

CC(O)(CS(=O)(=O)c1cccc(S(F)(F)(F)(F)F)c1)C(=O)Nc1ccc([N+](=O)[O-])cc1C(F)(F)F (racemic)
active: [1] Dose-dependent effect | [2] Dose-dependent effect | [3] Dose-dependent effect | [4] Dose-dependent effect

CC(O)(COc1ccc(C#N)c(F)c1)C(=O)Nc1cccc(S(F)(F)(F)(F)F)c1 (racemic)
active: [1] Dose-dependent effect | [2] Dose-dependent effect | [3] Dose-dependent effect | [4] Dose-dependent effect

CC(O)(COc1ccc(C#N)cc1C(F)(F)F)C(=O)Nc1cccc(S(F)(F)(F)(F)F)c1 (racemic)
active: [1] Dose-dependent effect | [2] Dose-dependent effect | [3] Dose-dependent effect | [4] Dose-dependent effect

CC(O)(COc1cccc(S(F)(F)(F)(F)F)c1)C(=O)Nc1cc(C(F)(F)F)cc(C(F)(F)F)c1 (racemic)
active: [1] Dose-dependent effect | [2] Dose-dependent effect | [3] Dose-dependent effect | [4] Dose-dependent effect

CC(O)(COc1ccc(S(F)(F)(F)(F)F)cc1)C(=O)Nc1cc(C(F)(F)F)cc(C(F)(F)F)c1 (racemic)
active: [1] Dose-dependent effect | [2] Dose-dependent effect | [3] Dose-dependent effect | [4] Dose-dependent effect

CC(O)(COc1cc(C(F)(F)F)cc(C(F)(F)F)c1)C(=O)Nc1cccc(S(F)(F)(F)(F)F)c1 (racemic)
active: [1] Dose-dependent effect | [2] Dose-dependent effect | [3] Dose-dependent effect | [4] Dose-dependent effect

CC(O)(COc1cccc(C(F)(F)F)c1)C(=O)Nc1cccc(S(F)(F)(F)(F)F)c1 (racemic)
active: [1] Dose-dependent effect | [2] Dose-dependent effect | [3] Dose-dependent effect | [4] Dose-dependent effect

CC(O)(CS(=O)(=O)c1ccc(S(F)(F)(F)(F)F)cc1)C(=O)Nc1ccc([N+](=O)[O-])c(C(F)(F)F)c1 (racemic)
active: [1] Dose-dependent effect | [2] Dose-dependent effect | [3] Dose-dependent effect | [4] Dose-dependent effect

CC(O)(COc1ccc(S(F)(F)(F)(F)F)cc1)C(=O)Nc1cccc(S(F)(F)(F)(F)F)c1 (racemic)
active: [1] Dose-dependent effect | [2] Dose-dependent effect | [3] Dose-dependent effect | [4] Dose-dependent effect

CC(O)(COc1ccccc1OC(F)(F)F)C(=O)Nc1ccc(S(F)(F)(F)(F)F)cc1 (racemic)
active: [1] Dose-dependent effect | [2] Dose-dependent effect | [3] Dose-dependent effect | [4] Dose-dependent effect

CC(O)(CS(=O)(=O)c1cccc(S(F)(F)(F)(F)F)c1)C(=O)Nc1ccc([N+](=O)[O-])c(C(F)(F)F)c1 (racemic)
active: [1] Dose-dependent effect | [2] Dose-dependent effect | [3] Dose-dependent effect | [4] Dose-dependent effect

CC(O)(COc1ccc(C#N)cc1)C(=O)Nc1ccc(S(F)(F)(F)(F)F)cc1 (racemic)
active: [1] Dose-dependent effect | [2] Dose-dependent effect | [3] Dose-dependent effect | [4] Dose-dependent effect

CC(O)(COc1ccccc1C(F)(F)F)C(=O)Nc1cccc(S(F)(F)(F)(F)F)c1 (racemic)
active: [1] Dose-dependent effect | [2] Dose-dependent effect | [3] Dose-dependent effect | [4] Dose-dependent effect

CC(O)(COc1cc(C(F)(F)F)cc(C(F)(F)F)c1)C(=O)Nc1ccc(S(F)(F)(F)(F)F)cc1 (racemic)
active: [1] Dose-dependent effect | [2] Dose-dependent effect | [3] Dose-dependent effect | [4] Dose-dependent effect

CC(O)(COc1ccc(OC(F)(F)F)cc1)C(=O)Nc1cccc(S(F)(F)(F)(F)F)c1 (racemic)
active: [1] Dose-dependent effect | [2] Dose-dependent effect | [3] Dose-dependent effect | [4] Dose-dependent effect

CC(O)(COc1ccc(C(F)(F)F)cc1)C(=O)Nc1cccc(S(F)(F)(F)(F)F)c1 (racemic)
active: [1] Dose-dependent effect | [2] Dose-dependent effect | [3] Dose-dependent effect | [4] Dose-dependent effect

CC(O)(COc1cccc(S(F)(F)(F)(F)F)c1)C(=O)Nc1ccc(C(F)(F)F)cc1 (racemic)
active: [1] Dose-dependent effect | [2] Dose-dependent effect | [3] Dose-dependent effect | [4] Dose-dependent effect

CC(O)(COc1ccc(C#N)c(F)c1)C(=O)Nc1ccc(S(F)(F)(F)(F)F)cc1 (racemic)
active: [1] Dose-dependent effect | [2] Dose-dependent effect | [3] Dose-dependent effect | [4] Dose-dependent effect

CC(O)(COc1ccc(S(F)(F)(F)(F)F)cc1)C(=O)Nc1ccc(C(F)(F)F)cc1 (racemic)
active: [1] Dose-dependent effect | [2] Dose-dependent effect | [3] Dose-dependent effect | [4] Dose-dependent effect

CC(O)(COc1cccc(S(F)(F)(F)(F)F)c1)C(=O)Nc1cccc(S(F)(F)(F)(F)F)c1 (racemic)
active: [1] Dose-dependent effect | [2] Dose-dependent effect | [3] Dose-dependent effect | [4] Dose-dependent effect

CC(O)(COc1ccccc1OC(F)(F)F)C(=O)Nc1cccc(S(F)(F)(F)(F)F)c1 (racemic)
active: [1] Dose-dependent effect | [2] Dose-dependent effect | [3] Dose-dependent effect | [4] Dose-dependent effect

CC(O)(COc1ccc(C#N)cc1C(F)(F)F)C(=O)Nc1ccc(S(F)(F)(F)(F)F)cc1 (racemic)
active: [1] Dose-dependent effect | [2] Dose-dependent effect | [3] Dose-dependent effect | [4] Dose-dependent effect

CC(O)(CS(=O)(=O)c1cccc(S(F)(F)(F)(F)F)c1)C(=O)Nc1ccc(C#N)cc1C(F)(F)F (racemic)
active: [1] Dose-dependent effect | [2] Dose-dependent effect | [3] Dose-dependent effect | [4] Dose-dependent effect
